Experimental data reported in article PMC10609148, “Hexa-Histidine, a Peptide with Versatile Applications in the Study of Amyloid-β(1–42) Molecular Mechanisms of Action” (Molecules, 2023).

Sequences of proteins named here, by UniProt entry; tags and fusion partners are left off. Residues count along the entry.
UniProt P00387, 27-301: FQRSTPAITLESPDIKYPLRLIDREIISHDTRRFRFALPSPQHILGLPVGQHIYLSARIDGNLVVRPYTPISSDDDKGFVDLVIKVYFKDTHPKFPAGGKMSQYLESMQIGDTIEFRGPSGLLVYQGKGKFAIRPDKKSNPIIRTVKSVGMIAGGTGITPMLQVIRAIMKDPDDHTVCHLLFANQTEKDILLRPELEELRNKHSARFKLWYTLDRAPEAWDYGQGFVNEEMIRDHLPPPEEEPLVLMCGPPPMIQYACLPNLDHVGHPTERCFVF

Molecular target: human recombinant Cb5R minus a His6-tag (human) (UniProt P00387)

- inhibition of the rate of NADH-dependent reduction in Cb5 by Cb5R minus a His6-tag, up to 2 μM of Aβ(25–35): < 10%
Substance: Aβ(25–35) (peptide)
